## Ab-14 heavy chain CDR variants: yeast mating affinities

All variants were tested on one target, the spike HR2 peptide PDVDLGDISGINAS (SARS-CoV-2).

Parent: Ab-14, a human scFv built as VH, three GGGGS repeats, VL. Only the CDRs of the heavy chain vary.
VH: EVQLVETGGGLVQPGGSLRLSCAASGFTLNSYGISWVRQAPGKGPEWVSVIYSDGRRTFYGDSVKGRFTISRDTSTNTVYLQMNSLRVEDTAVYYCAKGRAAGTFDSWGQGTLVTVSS
VL: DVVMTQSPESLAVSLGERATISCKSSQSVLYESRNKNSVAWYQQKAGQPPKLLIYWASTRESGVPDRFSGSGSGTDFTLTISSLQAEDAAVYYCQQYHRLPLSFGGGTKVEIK

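The parent was found by panning a naive human phage display library on the peptide. This is the validation round: designs drawn from the data on random variants, tested in the same kind of assay. Their group label is 14H_Rand (Rand: our label for a block that the file lists under HC and that is probably the random mutants of the ten best first-round binders). The scFvs were displayed on barcoded MATa yeast, the peptide on MATalpha yeast. Binding brings cells together so that they mate, and sequencing counts the barcode pairs among the diploids. Read counts were normalised to the haploid input and turned into Kd by a linear fit to BCL2-family pairs of known affinity, for each replicate. Mating was done six times.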

The whole VH of each variant is written out.
Numbers give log10(Kd / nM), so 0 is 1 nM and 3 is 1 µM. Smaller is tighter.
Replicates are averaged; those with no signal do not enter the mean.
"n.d." means that the variant was in the library but no mating with the target was seen in that replicate; the authors take this as a sign of poor binding, and no number exists.
A sequence measured in both rounds can read differently, since the two assays cover different ranges.

{"VH": "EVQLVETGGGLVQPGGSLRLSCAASGFPLNSYGISWVRQAPGKGPEWVSVIYADGRRTFYGDSVKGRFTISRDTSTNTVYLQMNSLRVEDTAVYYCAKGRAAGTNKSWGQGTLVTVSS", "log10 Kd, replicates": "1.53 1.04 0.93 1.46 1.04 0.93", "log10 Kd (nM), mean": "1.15", "signal with controls": "1 of 18 (2.09)"}
{"VH": "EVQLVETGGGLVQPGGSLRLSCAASGFTLNEYGISWVRQAPGKGPEWVSVIYQDGRRTFYGDSVKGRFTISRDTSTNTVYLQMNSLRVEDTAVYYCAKGRAAVTFDQWGQGTLVTVSS", "log10 Kd, replicates": "n.d. n.d. n.d. n.d. n.d. n.d.", "log10 Kd (nM), mean": "n.d.", "signal with controls": "0 of 18"}
{"VH": "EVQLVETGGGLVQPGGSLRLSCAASMFTLNDYGIQWVRQAPGKGPEWVSVIYWDGRRTFYGDSVKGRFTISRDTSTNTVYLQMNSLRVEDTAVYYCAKGRAALTHISWGQGTLVTVSS", "log10 Kd, replicates": "n.d. n.d. n.d. n.d. n.d. n.d.", "log10 Kd (nM), mean": "n.d.", "signal with controls": "0 of 18"}
{"VH": "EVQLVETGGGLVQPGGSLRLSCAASGFTLNEYGISWVRQAPGKGPEWVSVIYSDGRRTFYGDSVKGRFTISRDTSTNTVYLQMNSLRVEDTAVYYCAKGRAAVTCDQWGQGTLVTVSS", "log10 Kd, replicates": "n.d. n.d. n.d. n.d. n.d. n.d.", "log10 Kd (nM), mean": "n.d.", "signal with controls": "0 of 18"}
{"VH": "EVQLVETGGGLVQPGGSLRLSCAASGFTLNSYGICWVRQAPGKGPEWVSVIYSDGRRTFYFDSVKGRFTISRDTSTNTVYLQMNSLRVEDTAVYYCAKGRAEGTFDSWGQGTLVTVSS", "log10 Kd, replicates": "n.d. n.d. n.d. n.d. n.d. n.d.", "log10 Kd (nM), mean": "n.d.", "signal with controls": "0 of 18"}
{"VH": "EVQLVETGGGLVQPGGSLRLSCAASGFTLNSYGISWVRQAPGKGPEWVSVIYPDGRRTFYGDSVKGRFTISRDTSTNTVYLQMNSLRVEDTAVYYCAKGRAAGTIKSWGQGTLVTVSS", "log10 Kd, replicates": "n.d. n.d. n.d. n.d. n.d. n.d.", "log10 Kd (nM), mean": "n.d.", "signal with controls": "0 of 18"}
{"VH": "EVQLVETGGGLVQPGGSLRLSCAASGFTLNQYGISWVRQAPGKGPEWVSVHYSDGRRTFYSDSVKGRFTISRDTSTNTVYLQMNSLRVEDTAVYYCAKGRAAGFFDSWGQGTLVTVSS", "log10 Kd, replicates": "n.d. n.d. n.d. n.d. n.d. n.d.", "log10 Kd (nM), mean": "n.d.", "signal with controls": "0 of 18"}
{"VH": "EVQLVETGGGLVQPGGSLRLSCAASGFTLNMYGISWVRQAPGKGPEWVSVIYAYGRRTFYGDSVKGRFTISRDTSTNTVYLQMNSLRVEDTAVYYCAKGRAAGTNKSWGQGTLVTVSS", "log10 Kd, replicates": "n.d. n.d. n.d. n.d. n.d. n.d.", "log10 Kd (nM), mean": "n.d.", "signal with controls": "0 of 18"}
{"VH": "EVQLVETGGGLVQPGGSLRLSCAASGWTLNSYAISWVRQAPGKGPEWVSVIYSDGRRTFYDDSVKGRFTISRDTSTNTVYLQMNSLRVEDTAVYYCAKGQLAGTFDSWGQGTLVTVSS", "log10 Kd, replicates": "n.d. n.d. n.d. n.d. n.d. n.d.", "log10 Kd (nM), mean": "n.d.", "signal with controls": "0 of 18"}
{"VH": "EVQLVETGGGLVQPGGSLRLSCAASGFTLNQYGISWVRQAPGKGPEWVSVIYSDGRRYFYSDSVKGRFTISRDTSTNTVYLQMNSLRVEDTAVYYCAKGRATGFFISWGQGTLVTVSS", "log10 Kd, replicates": "n.d. n.d. n.d. n.d. n.d. n.d.", "log10 Kd (nM), mean": "n.d.", "signal with controls": "0 of 18"}
{"VH": "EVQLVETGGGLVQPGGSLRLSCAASGFTLESYGISWVRQAPGKGPEWVSVIYSDPRRTFYSDSVKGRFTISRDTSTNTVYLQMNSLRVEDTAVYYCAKGRAGHTFGSWGQGTLVTVSS", "log10 Kd, replicates": "n.d. n.d. n.d. n.d. n.d. n.d.", "log10 Kd (nM), mean": "n.d.", "signal with controls": "1 of 18 (2.10)"}
{"VH": "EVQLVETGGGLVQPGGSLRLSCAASGFTLNSYGISWVRQAPGKGPEWVSVIYSDGRRTFYDDSVKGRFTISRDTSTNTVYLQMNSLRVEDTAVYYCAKGQRYGTFDSWGQGTLVTVSS", "log10 Kd, replicates": "n.d. n.d. n.d. n.d. n.d. n.d.", "log10 Kd (nM), mean": "n.d.", "signal with controls": "0 of 18"}
{"VH": "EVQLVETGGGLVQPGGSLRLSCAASGDTLNQYGISWVRQAPGKGPEWVSVIYADGRRTFYGDSVKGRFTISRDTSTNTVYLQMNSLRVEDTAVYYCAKGRAAGTNKSWGQGTLVTVSS", "log10 Kd, replicates": "n.d. n.d. n.d. n.d. n.d. n.d.", "log10 Kd (nM), mean": "n.d.", "signal with controls": "0 of 18"}
{"VH": "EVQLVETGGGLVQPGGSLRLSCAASGFTLNSYGISWVRQAPGKGPEWVSVIYDDGRRTFYGDVVKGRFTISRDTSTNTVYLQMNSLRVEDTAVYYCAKTRAAGTNKSWGQGTLVTVSS", "log10 Kd, replicates": "n.d. n.d. n.d. n.d. n.d. n.d.", "log10 Kd (nM), mean": "n.d.", "signal with controls": "0 of 18"}
{"VH": "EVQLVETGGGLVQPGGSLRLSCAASGVTLNDYGKSWVRQAPGKGPEWVSVIYSDGRRTFYGDSVKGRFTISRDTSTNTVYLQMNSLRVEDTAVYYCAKGRAALHFISWGQGTLVTVSS", "log10 Kd, replicates": "n.d. n.d. n.d. n.d. n.d. n.d.", "log10 Kd (nM), mean": "n.d.", "signal with controls": "0 of 18"}

The authors' rule: three or more of the six replicates give a measured affinity, fewer mean a poor binder.
As a blank, each scFv also met three strains without target: over all heavy chain designs, 1% of these pairings were detected, typically at 2.08 and seldom below 0.84. Also given: how often the same scFv was detected with the empty control strains, with their mean in brackets.
Of ten entries with the parent sequence, four were seen in most replicates (averages 0.34 to 2.37), three in one and three in none, so single entries are noisy.

Reference: Li et al. 2023, doi:10.1038/s41467-023-39022-2. File: FLAb, binding data.